1 substance from patent US20140178315A1, “Topical Compositions Comprising Ionic Fluids” (Arch Chemicals, Inc., priority 2012, published 2014) can be followed below.

The conditions of this data set: 1 g salt added to 9 g anhydrous betaine glycolate ionic fluid; heated at 105° C. for 2 hours; remained a viscous fluid after cooling to room temperature.

Take betaine salicylate: the “Solubility of betaine salicylate in betaine glycolate ionic fluid (appearance of the mixture)” value was “formed a clear fluid”.
